# Values of other authors as cited in patent publication US10959955B1 (RHOSHAN PHARMACEUTICALS, INC., priority 2017, dated 2021).
# Details: cited from earlier work
substance,measurement,setting,value
o-acetylsalicylic acid [Aspirin],solubility,"pH 5.5 and above, listed as ASA",greater than 100 mg/ml
same,aqueous solubility,water,about 3 mg/ml
